Results published in patent US20260384421A1, “NOVEL COMPOUNDS THAT CAN BE USED AS THERAPEUTIC AGENTS” (published 2026).
Where two headings read alike, the source gives them in different places.

What was measured:
MDA-MB-231 cells = assay: alamarBlue proliferation assay with MDA-MB-231 cells (glucose-free Leibovitz's L-15 medium)
ZR-75-30 cells = assay: alamarBlue proliferation assay with ZR-75-30 cells; details: read-out: Activity on ZR-75-30 (IC50), day 5
Description: (§1) These hyperproliferative processes can be benign or malignant and include hyperplasia, neoplasia, cancer and pre-cancerous lesions, and metastases. […] To this end, according cells were seeded into 96-well plates (CORNING #3598) suitable for fluorescence assays at following initial cell numbers: 1000 cells per well for HPEK; 3000 cells per well for MDA-MB-231, 8000 cells per well for ZR-75-30, 1500 cells per well for HCC-1395, 1500 cells per well for HCC-1937, 3000 cells per well for T-47D, 1500 cells per well for JURKAT, 5000 cells per well for RPMI-8402, 9000 cells per well for LOUCY, 1500 cells per well for TANQUE, 9000 cells per well for REC-1, 1000 cells per well for HL-60, 1000 cells per well for NB-4, 9000 cells per well for TT, 2000 cells per well for HeLa, 2000 cells per well for 23132/87, 9000 cells per well for SW-948, 700 cells per well for HCT-116, 1500 cells per well for BHY, 700 cells per well for A-431, 1500 cells per well for HEP-G2, 500 cells per well for NCI-H460, 1000 cells per well for A-549, 1500 cells per well for PANC-1, 2500 cells per well for U-87 MG, 700 cells per well for A-375, 1500 cells per well for RVH-421, 2000 cells per well for SW-1353, 500 cells per well for C2C12, 500 cells per well for LL/2, and 3000 cells per well for CF21.T. In a volume of 90 μL per well of culture medium the cells were treated with compounds at indicated final concentrations by adding 10 μL per well of 10× compound working solutions from 1:100 pre-diluted 1000× compound DMSO stock-solutions in H2O (Water For Injection, WFI, Fisher Scientific, Gibco™ #A12873) or with the empty carrier DMSO (AppliChem, #A3672) at 0.1% v/v as control yielding a final volume of 100 μL per well. […] The readout was taken with a multi-well plate-reader (Tecan Spark®) in the fluorescence mode with applying a filter for excitation at 560 nm (band width 10 nm) and for emission at 590 nm (band width 10 nm). […]

HL-60 cells = assay: alamarBlue proliferation assay with HL-60 cells; details: read-out: Activity on HL-60: IC50, RPMI 1640 medium, 10% FBS
SW-948 cells = assay: alamarBlue proliferation assay with SW-948 cells (glucose-free L-15 medium); details: read-out: Activity on SW-948: IC50, Leibovitz's L-15 medium, 10% FBS, 0% CO2
A-431 cells = assay: alamarBlue proliferation assay with A-431 cells; details: read-out: Activity on A-431: IC50, DMEM medium, 10% FBS
HEP-G2 cells = assay: alamarBlue proliferation assay with HEP-G2 cells; details: read-out: Activity on HEP-G2: IC50, RPMI 1640 medium, 10% FBS
NCI-H460 cells = assay: alamarBlue proliferation assay with NCI-H460 cells; details: read-out: Activity on NCI-H460: IC50, RPMI 1640 medium, 10% FBS
A-549 cells = assay: alamarBlue proliferation assay with A-549 cells; details: read-out: Activity on A-549: IC50, DMEM medium, 10% FBS
PANC-1 cells = assay: alamarBlue proliferation assay with PANC-1 cells; details: read-out: Activity on PANC-1: IC50, DMEM medium, 10% FBS
Excerpt: (§2) These hyperproliferative processes can be benign or malignant and include hyperplasia, neoplasia, cancer and pre-cancerous lesions, and metastases. The antiproliferative activities of compounds falling under general formula (I) were investigated on human primary epidermal keratinocytes (HPEK) and human, murine and canine cell lines derived from hyperproliferative tissue or different cancer types, including MDA-MB-231, ZR-75-30, HCC-1395, HCC-1937, and T-47D all originating from cancer of the breast, JURKAT, RPMI-8402, LOUCY, TANQUE, REC-1, HL-60, NB-4 all originating from different types of blood cancer including lymphoma and leukemia of T-cells, B-cells and myeloid cells, TT originating from cancer of the neuroendocrine system, HeLa originating from cancer of the cervix, 23132/87, SW-948, and HCT-116 all originating from cancer of the gastrointestinal tract including stomach and colon, BHY originating from cancer of the mucosal epithelium, A-431 originating from cancer of the skin, HEP-G2 originating from cancer of the liver, NCI-H460 and A-549 both originating from cancer of the lung, PANC-1 originating from cancer of the pancreas, U-87 MG originating from cancer of the brain, A-375 and RVH-421 both originating from cancer of melanocytes, SW-1353 originating from cancer of bone-derived chondrocytes, C2C12 a mouse cell line originating from hyperproliferative muscle progenitor cells, LL/2 a mouse cell line originating from cancer of the lung, CF21.T a dog cell line originating from cancer of the connective tissue. To this end, according cells were seeded into 96-well plates (CORNING #3598) suitable for fluorescence assays at following initial cell numbers: 1000 cells per well for HPEK; 3000 cells per well for MDA-MB-231, 8000 cells per well for ZR-75-30, 1500 cells per well for HCC-1395, 1500 cells per well for HCC-1937, 3000 cells per well for T-47D, 1500 cells per well for JURKAT, 5000 cells per well for RPMI-8402, 9000 cells per well for LOUCY, 1500 cells per well for TANQUE, 9000 cells per well for REC-1, 1000 cells per well for HL-60, 1000 cells per well for NB-4, 9000 cells per well for TT, 2000 cells per well for HeLa, 2000 cells per well for 23132/87, 9000 cells per well for SW-948, 700 cells per well for HCT-116, 1500 cells per well for BHY, 700 cells per well for A-431, 1500 cells per well for HEP-G2, 500 cells per well for NCI-H460, 1000 cells per well for A-549, 1500 cells per well for PANC-1, 2500 cells per well for U-87 MG, 700 cells per well for A-375, 1500 cells per well for RVH-421, 2000 cells per well for SW-1353, 500 cells per well for C2C12, 500 cells per well for LL/2, and 3000 cells per well for CF21.T. In a volume of 90 μL per well of culture medium the cells were treated with compounds at indicated final concentrations by adding 10 μL per well of 10× compound working solutions from 1:100 pre-diluted 1000× compound DMSO stock-solutions in H2O (Water For Injection, WFI, Fisher Scientific, Gibco™ #A12873) or with the empty carrier DMSO (AppliChem, #A3672) at 0.1% v/v as control yielding a final volume of 100 μL per well. At day 5 after starting the treatments the cells were subjected to the alamarBlue® Proliferation Assay (Bio-Rad Serotec GmbH, BUF012B) according to the protocol of the manufacturer. The readout was taken with a multi-well plate-reader (Tecan Spark®) in the fluorescence mode with applying a filter for excitation at 560 nm (band width 10 nm) and for emission at 590 nm (band width 10 nm). Treatment for maximum proliferation inhibition with the commercial cytotoxic compound (S)-(+)-camptothecin (Fluorochem #M01564) at a concentration of 10 μM was included on each plate for assay quality control. Some of the test compounds of the present invention may have been obtained and applied as their salt forms.
(§3) The assays were performed in duplicate or more replicates of independent single experiments each containing a three- to six-fold replicate for every condition. […]

U-87 MG cells = assay: alamarBlue proliferation assay with U-87 MG cells; details: read-out: Activity on U-87MG: IC50, EMEM medium, 10% FBS
RVH-421 cells = assay: alamarBlue proliferation assay with RVH-421 cells (glucose-free L-15 medium); details: read-out: Activity on RVH-421: IC50, Leibovitz's L-15 medium, 10% FBS, 0% CO2
SW-1353 cells = assay: alamarBlue proliferation assay with SW-1353 cells (glucose-free L-15 medium); details: read-out: Activity on SW-1353: IC50, Leibovitz's L-15 medium, 10% FBS, 0% CO2
HPEKp cells = assay: proliferation assay with human epidermal keratinocyte progenitors (HPEKp), selectivity versus MDA-MB-231; details: read-out: Activity (HPEK): antiproliferative activity on HPEK cells, IC50 category; HPEK cells cultivated in CnT-Prime medium
JURKAT cells = assay: alamarBlue proliferation assay with JURKAT cells; details: read-out: Activity on JURKAT (IC50), day 5
TANQUE cells = assay: alamarBlue proliferation assay with TANQUE cells; details: read-out: Activity on TANOUE: IC50, RPMI 1640 medium, 10% FBS
REC-1 cells = assay: alamarBlue proliferation assay with REC-1 cells; details: read-out: Activity on REC-1 (IC50), day 5
Description: as §1

NB-4 cells = assay: alamarBlue proliferation assay with NB-4 cells; details: read-out: Activity on NB-4: IC50, RPMI 1640 medium, 10% FBS
HCT-116 cells = assay: alamarBlue proliferation assay with HCT-116 cells; details: read-out: Activity on HCT-116: IC50, McCoy's 5A medium, 10% FBS
BHY cells = assay: alamarBlue proliferation assay with BHY cells; details: read-out: Activity on BHY: IC50, DMEM medium, 10% FBS
LL/2 cells = assay: alamarBlue proliferation assay with LL/2 cells; details: read-out: Activity on LL/2: IC50; LL/2 murine Lewis lung carcinoma cells, DMEM medium, 10% FBS
T-47D cells = assay: alamarBlue proliferation assay with T-47D cells; details: read-out: Activity on T-47D (IC50), day 5
Excerpt: as §2, §3

HeLa cells = assay: alamarBlue proliferation assay with HeLa cells; details: read-out: Activity on HeLa (IC50), day 5
Excerpt: as §2, with “Treatment for maximum proliferation inhibition with the commercial cytotoxic compound (S)-(+)-camptothecin (Fluorochem #M01564) at a concentration of 10 μM was included on each plate for assay quality control. Some of the test compounds of the present invention may have been obtained and applied as their salt forms.” left out

23132/87 cells = assay: alamarBlue proliferation assay with 23132/87 cells; details: read-out: Activity on 23132/87: IC50, RPMI 1640 medium, 10% FBS
Excerpt: as §2, §3

CF21.T cells = assay: alamarBlue proliferation assay with CF21.T cells; details: read-out: Activity on CF21.T: IC50; CF21.T canine cells, DMEM medium, 10% FBS
[1] = read-out: Activity (MDA): antiproliferative activity on MDA-MB-231 cells, IC50 category, MDA-MB-231 cells cultivated in glucose-free Leibovitz's L-15 medium
[2] = read-out: Activity on MDA-MB-231 (IC50), glucose-free Leibovitz's L-15, 10% FBS, day 5, alamarBlue

Row | Compound | IC50 (MDA-MB-231 cells; [1]) | IC50 (MDA-MB-231 cells; [2]) | IC50 (HL-60 cells) | IC50 (SW-948 cells) | IC50 (A-431 cells) | IC50 (HEP-G2 cells) | IC50 (NCI-H460 cells) | IC50 (A-549 cells) | IC50 (PANC-1 cells) | IC50 (U-87 MG cells) | IC50 (SW-1353 cells) | IC50 (HPEKp cells) | IC50 (HCT-116 cells) | IC50 (T-47D cells) | IC50 (ZR-75-30 cells) | IC50 (RVH-421 cells) | IC50 (TANQUE cells) | IC50 (NB-4 cells) | IC50 (BHY cells) | IC50 (LL/2 cells) | also measured
1 | O=C(c1ccc(Oc2ccc(C3CCC4(CC3)OCCO4)cc2CO)cc1)N1CCN(Cc2ccccc2)CC1 | < 1000 nM | ≤ 200 nM | ≤ 5000 nM | ≤ 1000 nM | ≤ 200 nM | ≤ 200 nM | ≤ 200 nM | ≤ 200 nM | ≤ 200 nM | ≤ 1000 nM | ≤ 200 nM | < 5000 nM |  |  | ≤ 200 nM | ≤ 200 nM |  |  |  |  | 
2 | O=C(c1ccc(Oc2ccc(C3CCC4(CC3)OCCO4)cc2CO)cc1)N1CCN(Cc2ccc(C(F)(F)F)cc2)CC1 | < 1000 nM | ≤ 200 nM | ≤ 200 nM | ≤ 200 nM | ≤ 200 nM | ≤ 200 nM | ≤ 200 nM | ≤ 200 nM | ≤ 20000 nM | ≤ 5000 nM | ≤ 200 nM | < 10000 nM | ≤ 200 nM |  |  | ≤ 200 nM | ≤ 200 nM | ≤ 200 nM | ≤ 200 nM | ≤ 200 nM | IC50 (JURKAT cells): ≤ 20000 nM; IC50 (REC-1 cells): ≤ 5000 nM
3 | COC1CCC(c2ccc(Oc3ccc(C(=O)N4CCN(Cc5ccc(Cl)cn5)CC4)cc3)c(C=O)c2)CC1 (stereo not drawn) |  | ≤ 200 nM |  |  |  | ≤ 200 nM |  | ≤ 200 nM |  |  |  |  | ≤ 200 nM | ≤ 1000 nM |  |  | ≤ 200 nM | ≤ 200 nM | ≤ 200 nM | ≤ 1000 nM | IC50 (HeLa cells): ≤ 5000 nM; IC50 (23132/87 cells): ≤ 5000 nM; IC50 (CF21.T cells): ≤ 1000 nM

The next lines start with results.

Row | IC50 (MDA-MB-231 cells; [1]) | IC50 (MDA-MB-231 cells; [2]) | IC50 (HL-60 cells) | IC50 (SW-948 cells) | IC50 (A-431 cells) | IC50 (HEP-G2 cells) | IC50 (NCI-H460 cells) | IC50 (A-549 cells) | IC50 (PANC-1 cells) | IC50 (U-87 MG cells) | IC50 (SW-1353 cells) | IC50 (HPEKp cells) | IC50 (HCT-116 cells) | IC50 (T-47D cells) | Compound | IC50 (ZR-75-30 cells) | IC50 (RVH-421 cells) | IC50 (TANQUE cells) | IC50 (NB-4 cells) | IC50 (BHY cells) | IC50 (LL/2 cells) | also measured
4 | < 1000 nM | ≤ 1000 nM |  |  |  | ≤ 5000 nM |  |  |  |  |  | > 10000 nM |  |  | CCCCN1CCN(C(=O)c2ccc(Oc3ccc(C4CCC5(CC4)OCCO5)cc3CO)cc2)CC1 | ≤ 5000 nM |  |  |  |  |  | 
5 |  | ≤ 200 nM |  |  |  | ≤ 200 nM |  | ≤ 200 nM |  |  |  |  | ≤ 200 nM | ≤ 5000 nM | COC1CCC(c2ccc(Oc3ccc(C(=O)N4CCN(Cc5ccc(S(F)(F)(F)(F)F)cc5)CC4)cc3)c(C=O)c2)CC1 (stereo not drawn) |  |  | ≤ 200 nM | ≤ 200 nM | ≤ 200 nM | ≤ 200 nM | IC50 (HeLa cells): ≤ 5000 nM; IC50 (23132/87 cells): ≤ 5000 nM; IC50 (CF21.T cells): ≤ 200 nM
